Results as given in US20250180543A1, “COMPOSITIONS AND METHODS OF A HIGH-THROUGHPUT SCREEN TO IDENTIFY COMPOUNDS THAT ALTER MACROPHAGE-MEDIATED CYTOTOXICITY OF TARGET CELLS” (Whitehead Institute for Biomedical Research, priority 2022, published 2025).

System: GFP+ MGH134-1 cells
Assay: Long-term co-culture assay, primary human macrophages + GFP+ MGH134-1 cells
Type: cell-based
Settings: secondary EGFR mutation
Experimental: Long-term co-culture of primary human macrophages was performed using GFP+ target cells. Cells were cultured in IMDM supplemented with 10% ultra-low IgG fetal bovine serum, 100 units/mL penicillin, 100 ug/mL streptomycin, and 292 ug/mL L-glutamine and 20 ng/mL human M-CSF. Purified anti-CD47 antibody clone B6H12 was added at a working concentration of 10 ug/mL. Targeted therapies were added at a final working concentration of 1.0 uM except as otherwise indicated. Cells were then co-cultured for 7-14 days with whole-well imaging of phase contrast and GFP channels performed every 4 hours using an Incucyte S3 system. Automated imaging analysis was performed using Incucyte Analysis Software. Images taken on day 6.5 was used as a standard reference time point for data comparison and statistical analysis. For dose-response experiments, sigmoidal dose-response curves were generated using Prism version 9.2.0 (GraphPad) to determine IC50 parameters.
Long-term co-culture assays were performed by measuring GFP+ area. Data was analyzed by comparing mean GFP+ area between relevant conditions using one-way ANOVA with Holm-Sidak multiple comparison test. Experiments were performed in two independent trials using a minimum of 6-8 donors except as otherwise indicated. IC50 values were calculated by fitting data to sigmoidal dose-response curve using Prism version 9.2.0 (Graphpad).

COc1cc2ncnc(Nc3ccc(F)c(Cl)c3)c2cc1OCCCN1CCOCC1 [gefitinib]
sensitivity of MGH134 cells to EGFR TKI: resistant
